{"source": "paper PMC3560935", "about": "(Anesthesiology, 2011)", "key": {"Swiss-Webster mice [1]": {"system": "Swiss-Webster mice", "details": "mouse, in vivo"}, "Swiss-Webster mice [2]": {"system": "Swiss-Webster mice", "details": "mouse, in vivo", "remark": "listed apart in the source"}, "CYP3A4/5": {"system": "CYP3A4/5", "details": "humans; cited from earlier work"}}, "data": [{"substance": "Buprenorphine", "values": [{"measurement": "effect on minute ventilation (in words)", "setting": "Swiss-Webster mice [1]; Swiss-Webster", "value": "Neither buprenorphine nor B3G affected"}, {"measurement": "effect on respiratory rate (in words)", "setting": "Swiss-Webster mice [1]", "value": "did not have a significant effect"}, {"measurement": "effect on tidal volume (in words)", "setting": "Swiss-Webster mice [1]", "value": "neither compound had an effect"}, {"measurement": "total locomotor activity compared to control / sedation (in words)", "setting": "Swiss-Webster mice [2]", "value": "did not cause a decrease"}, {"measurement": "share of N-dealkylation to norbuprenorphine catalyzed by CYP3A4/5", "setting": "CYP3A4/5", "value": "80–90%"}]}]}
